Amino acid sequences for entries named in this document (tags omitted).
UniProt P09874, whole entry: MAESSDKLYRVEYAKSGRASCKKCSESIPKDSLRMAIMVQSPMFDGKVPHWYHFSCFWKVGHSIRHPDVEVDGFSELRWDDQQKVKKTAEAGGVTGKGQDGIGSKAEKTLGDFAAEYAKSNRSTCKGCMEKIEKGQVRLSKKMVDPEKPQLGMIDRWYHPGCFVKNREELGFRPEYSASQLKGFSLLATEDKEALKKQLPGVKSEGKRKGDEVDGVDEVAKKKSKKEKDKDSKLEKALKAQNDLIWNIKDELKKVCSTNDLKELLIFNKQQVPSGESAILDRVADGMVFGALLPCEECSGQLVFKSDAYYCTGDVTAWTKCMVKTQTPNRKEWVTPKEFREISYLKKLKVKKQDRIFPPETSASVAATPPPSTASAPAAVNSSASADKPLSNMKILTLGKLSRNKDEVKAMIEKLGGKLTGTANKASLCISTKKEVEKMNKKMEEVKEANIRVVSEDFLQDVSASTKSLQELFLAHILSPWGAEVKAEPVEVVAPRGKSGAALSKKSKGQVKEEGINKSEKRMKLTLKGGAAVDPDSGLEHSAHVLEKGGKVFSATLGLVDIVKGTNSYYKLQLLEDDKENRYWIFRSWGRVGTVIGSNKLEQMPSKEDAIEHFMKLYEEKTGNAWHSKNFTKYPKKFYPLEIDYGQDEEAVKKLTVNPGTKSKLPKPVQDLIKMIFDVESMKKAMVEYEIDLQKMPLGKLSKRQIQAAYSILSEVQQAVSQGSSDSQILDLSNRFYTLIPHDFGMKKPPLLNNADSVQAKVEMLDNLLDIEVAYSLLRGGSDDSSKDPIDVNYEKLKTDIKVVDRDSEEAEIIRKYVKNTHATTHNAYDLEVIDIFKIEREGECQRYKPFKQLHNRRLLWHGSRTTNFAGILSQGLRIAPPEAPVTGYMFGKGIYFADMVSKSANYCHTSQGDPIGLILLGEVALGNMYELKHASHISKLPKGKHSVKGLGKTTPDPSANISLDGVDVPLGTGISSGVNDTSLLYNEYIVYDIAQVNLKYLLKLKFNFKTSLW

In patent publication US8877944B2, “3-oxo-2,3-dihydro-1H-isoindole-4-carboxamides as PARP inhibitors” (Nerviano Medical Sciences S.R.L., priority 2009, dated 2014):

Key:
[1] = target: PARP-1 FL (Homo sapiens (Human), UniProt P09874); test: Fluorescence polarization probe displacement assay, PARP-1; type: binding; conditions: for DC50: half maximal displacement concentration
[2] = system: PAR formation in HeLa cells; test: Cellular PAR assay: inhibition of hydrogen peroxide induced PAR formation; conditions: Homo sapiens, read-out: PAR assay IC50

| Structure (SMILES) | Kd ([1]; compound P1 as the probe, 250 nM PARP-1) [nM] | DC50 [1] [nM] | IC50 [2] [nM] | Kd ([1]; compound P3 as the probe, 100 nM PARP-1) [nM] |
| --- | --- | --- | --- | --- |
| NC(=O)c1cccc2c1C(=O)N(C1CCN(Cc3ccc(F)cc3)CC1)C2 [Compound 11, 2-[1-(4-Fluorobenzyl)piperidin-4-yl]-3-oxo-2,3-dihydro-1H-isoindole-4-carboxamide] | 40 | < 250 | 3950 |  |
| NC(=O)c1ccc(F)c2c1C(=O)N(C1CCN(C3CCC(F)(F)CC3)CC1)C2 [Compound 101, 2-[1-(4,4-Difluorocyclohexyl)-piperidin-4-yl]-7-fluoro-3-oxo-2,3-dihydro-1H-isoindole-4-carboxamide] |  | < 250 | 1900 | 80 |
